Measured values published in ChEMBL document CHEMBL1152805, “Dual inhibitors of phosphodiesterase-4 and serotonin reuptake” (J Med Chem, 2009).

By UniProt entry, the sequences of proteins in these tests, tags left out.
UniProt P31645, whole entry: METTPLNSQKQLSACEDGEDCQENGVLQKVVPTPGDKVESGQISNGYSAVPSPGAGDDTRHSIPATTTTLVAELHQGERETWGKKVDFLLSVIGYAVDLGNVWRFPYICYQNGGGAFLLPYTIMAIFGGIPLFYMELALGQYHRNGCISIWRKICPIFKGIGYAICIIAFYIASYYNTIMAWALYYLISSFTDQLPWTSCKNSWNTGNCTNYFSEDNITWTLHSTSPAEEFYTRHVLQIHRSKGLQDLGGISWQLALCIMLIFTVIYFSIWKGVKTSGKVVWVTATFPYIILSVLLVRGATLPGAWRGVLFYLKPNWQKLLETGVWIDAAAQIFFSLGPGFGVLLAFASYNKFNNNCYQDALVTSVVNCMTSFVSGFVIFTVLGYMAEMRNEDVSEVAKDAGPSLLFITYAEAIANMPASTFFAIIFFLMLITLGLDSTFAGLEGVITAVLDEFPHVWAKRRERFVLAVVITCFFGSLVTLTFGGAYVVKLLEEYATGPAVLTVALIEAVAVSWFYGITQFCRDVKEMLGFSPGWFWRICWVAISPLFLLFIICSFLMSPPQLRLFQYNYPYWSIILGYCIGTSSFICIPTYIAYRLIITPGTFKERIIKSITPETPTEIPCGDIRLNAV

Columns and labels:
[1] = biological target: Sodium-dependent serotonin transporter (Homo sapiens, UniProt P31645); type: cell-based, HEK293
Liver microsomes = assay: Metabolic stability in rat liver microsomes assessed as half life at 40 uM after 60 mins by HPLC in presence of NADPH; type: ADME, Microsome; settings: 1 h

Structure (SMILES)	IC50 [1] [nM]	t1/2 (Liver microsomes) [h]
COc1ccc(F)c(CCCC2CCC(CCNCCCCCN3N=C(c4ccc(OC)c(OC)c4)[C@H]4CC=CC[C@H]4C3=O)O2)c1 (mixture of isomers)	194	–
COc1ccc(F)cc1CCC1CCC(CCN)O1 (configuration not stated)	–	1.772
